Source: patent US11666580B2, “Mechanism of resistance to bet bromodomain inhibitors” (Dana-Farber Cancer Institute, Inc., priority 2015, dated 2023)

Test system: SUM149, SUM149R, SUM159, and SUM159R cells
Experiment: Synergy studies (ATPlite, combination indices, isobolograms)
Assay type: cell-based, human
Settings: summary statement; resistant cells
Description: SUM149, SUM149R, SUM159, and SUM159R cells were seeded in sterile, white, opaque 384-well microtiter plates (Thermo), using an automated dispensing system (BioTek EL406), at 1,000 cells per well in 50 μl of media. Drugs were delivered in DMSO by robotic pin transfer with a JANUS workstation (100 nl) to achieve a matrix of pairwise dose-response incubations of each compound, each pair having eight replicates. Following 72 hours of incubation, ATP levels were determined for treated cells and vehicle controls (ATPlite, PerkinElmer). Data were normalized to vehicle controls. Combination indices were determined using the median-effect principle of Chou and Talalay^49 (CalcuSyn Software). Isobologram plots were generated with GraphPad Prism software. Points represent paired values of drug concentrations assessed for synergism. The diagonal line signifies drug additivity. Points above the line represent antagonistic drug combinations, and those below the line represent synergistic drug combinations. Synergy assays were performed in triplicates and repeated 2-3 times.

SMILES: N#CC[C@H](C1CCCC1)n1cc(-c2ncnc3[nH]ccc23)cn1 [INC424]
- Synergy with JQ1: substantial synergy
